Data as given in patent US12440610B2, “Coated medical devices and methods of inhibiting implant-associated infections” (UNIVERSITY OF CINCINNATI, priority 2017, dated 2025).

Tested on: P. aeruginosa (strain 762)
Test: In vitro bacterial adherence and colonization of coated implants, P. aeruginosa
Format: cell-based
Settings: p<0.05
Protocol: Bacteria was prepared as in 2.3 and 1000 colony forming units (cfus) in 300 μL was placed in the wells of 96-well plates. […] Pieces were then placed in 10 mL sterile PBS and bath sonicated for 10 minutes to release adherent bacteria. Bacteria were quantified by the plate dilution method.

For `O=C(N[C@H](CO)[C@H](O)c1ccc([N+](=O)[O-])cc1)C(Cl)Cl` [Chloramphenicol], the “PA adherence to PTFE (in words)” value (coated PTFE) was “significantly reduced” and the “PA adherence to silk suture (in words)” value (coated silk suture) was “significantly reduced”.
